# Experimental data from patent US20230398228A1, “ERIBULIN-BASED ANTIBODY-DRUG CONJUGATES AND METHODS OF USE” (EISAI R&D MANAGEMENT CO., LTD., priority 2016, published 2023).
# Test system: NCI-H2110 xenograft
# Conditions: for tumor volume, group MEAN: MORAb-003-0285 5 mg/kg
substance,measurement,setting,value
MORAb-003-PEG-pAB-duostatin 3 [M-0285],tumor growth inhibition (TGI),"5 mg/kg single i.v. dose, day 17 tumor volumes",89.7%
same,"tumor volume, group MEAN",day 0 post randomization,170.8 mm^3
same,"tumor volume, group MEAN",day 3 post randomization,231.2 mm^3
same,"tumor volume, group MEAN",day 5 post randomization,145.2 mm^3
same,"tumor volume, group MEAN",day 6 post randomization,170.2 mm^3
same,"tumor volume, group MEAN",day 7 post randomization,178.6 mm^3
same,"tumor volume, group MEAN",day 10 post randomization,140.2 mm^3
same,"tumor volume, group MEAN",day 12 post randomization,130 mm^3
same,"tumor volume, group MEAN",day 14 post randomization,123.4 mm^3
same,"tumor volume, group MEAN",day 17 post randomization,162.6 mm^3
same,"tumor volume, group MEAN",day 19 post randomization,212.4 mm^3
same,"tumor volume, group MEAN",day 24 post randomization,538.4 mm^3
same,"tumor volume, group MEAN",day 26 post randomization,690.8 mm^3
same,"tumor volume, group MEAN",day 28 post randomization,842.6 mm^3
same,"tumor volume, group MEAN",day 31 post randomization,1173.2 mm^3

# Like-named read-outs stand apart in the source and are kept apart here.
